Binding of CDR-mutated scFvs to a peptide of the spike HR2 region

Binding partner: SARS-CoV-2 spike HR2 peptide, sequence PDVDLGDISGINAS.

The variants keep the light chain, the linker and the frameworks of Ab-14 (scFv order VH, a 15-residue (Gly4Ser)3 linker, VL).
VH: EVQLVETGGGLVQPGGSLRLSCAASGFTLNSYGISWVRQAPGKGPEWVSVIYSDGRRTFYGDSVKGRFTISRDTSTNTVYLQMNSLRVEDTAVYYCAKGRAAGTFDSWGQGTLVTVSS
VL: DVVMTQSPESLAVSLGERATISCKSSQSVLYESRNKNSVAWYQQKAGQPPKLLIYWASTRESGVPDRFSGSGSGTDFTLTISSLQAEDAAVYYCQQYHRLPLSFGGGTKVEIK

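The parent was found by panning a naive human phage display library on the peptide. These sequences belong to a second round, designed from the earlier measurements on random variants of the parent. Group labels follow the data file (Ctrl: baseline library sampled from a position-specific scoring matrix, with some repeated check sequences; GP: Gaussian process model; HC: hill climbing; a sequence that several methods proposed may carry one label only). The scFvs were displayed on barcoded MATa yeast, the peptide on MATalpha yeast. Binding brings cells together so that they mate, and sequencing counts the barcode pairs among the diploids. A regression on co-assayed BCL2-family reference pairs converts the normalised counts of each replicate to an apparent Kd. Mating was done six times.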

Substitutions are numbered in sequence along the VH above, starting at 1 (not Kabat). Numbers give log10(Kd / nM), so 0 is 1 nM and 3 is 1 µM. Smaller is tighter. The mean shown is taken over the replicates in which the pair was detected. A pair that was not seen in that replicate is written "ND"; this usually means weak binding, but a binder can also be missed. The parent sequence was in this pool as ten entries: three were never detected, three once, and four in most replicates, with averages from 0.34 to 2.37.

changes | group | log10 Kd (nM) by replicate | mean log10 Kd (nM) | signal with controls
F105N/S107A | Ctrl | ND ND ND 1.79 ND ND | 1.79 | 1 of 18 (1.88)
R100E/T104R | Ctrl | ND 3.45 ND ND ND ND | 3.45 | 0 of 18
T28E/G61H/A101E/S107P | Ctrl | ND ND ND ND ND ND | ND | 0 of 18
F27T/N30E/R56E/G103C | Ctrl | ND ND ND ND ND ND | ND | 0 of 18
T28V/S31D/G61Q | Ctrl | 0.70 2.57 1.58 2.28 1.59 1.43 | 1.69 | 0 of 18
L29N/F59M/D106S | Ctrl | ND ND ND ND ND ND | ND | 2 of 18 (2.19)
F27H/R56M/G61V | Ctrl | ND ND ND 1.01 ND ND | 1.01 | 0 of 18
F59A/R100E/T104K/S107K | Ctrl | ND ND ND ND ND ND | ND | 0 of 18
F59G | Ctrl | 1.75 2.24 2.00 3.38 2.00 2.53 | 2.32 | 0 of 18
A101N/T104Q | Ctrl | ND ND ND ND ND ND | ND | 0 of 18
G26D/G99V/S107T | Ctrl | ND ND ND ND ND ND | ND | 0 of 18
S31M/T104W | Ctrl | 0.64 0.82 0.86 0.59 0.25 0.52 | 0.62 | 0 of 18
F27L/N30M/F59S/S107D | Ctrl | ND ND ND ND ND ND | ND | 0 of 18
S31D/S53A | Ctrl+GP_HC | -0.13 -0.38 0.05 -0.72 -0.52 -0.27; -0.11 0.23 -0.17 -0.20 0.00 0.39 | -0.15 | 1 of 36 (1.96)
R56Y/F105G | Ctrl | ND ND ND ND ND ND | ND | 0 of 18
T104L | Ctrl | ND ND ND ND ND ND | ND | 0 of 18
F27I | Ctrl | ND ND 2.97 ND ND 2.23 | 2.60 | 1 of 18 (2.35)
D62G | Ctrl | ND ND ND ND ND ND | ND | 0 of 18
S31D/G61Q/K65V/A102K/T104W | Ctrl | ND ND ND ND ND ND | ND | 1 of 18 (4.09)
F59M/F105G/S107H | Ctrl | ND ND ND ND ND ND | ND | 0 of 18
G61S/R100E | Ctrl | 0.57 0.48 0.28 0.08 0.26 0.45 | 0.35 | 1 of 18 (2.09)
T28K/S31E/R100T | Ctrl | -0.07 -0.27 -0.83 ND -0.12 1.33 | 0.01 | 0 of 18
T28D/G61L/S107I | Ctrl | ND ND 1.26 ND ND 1.42 | 1.34 | 0 of 18
I34R/S63Q/R100S/S107T | Ctrl | ND ND ND ND ND ND | ND | 1 of 18 (1.49)
T28N/A102I | Ctrl | ND ND ND ND ND ND | ND | 0 of 18
G26D/T28S/A101E/A102R/D106S | Ctrl | ND ND ND ND ND ND | ND | 1 of 18 (2.83)
T28A/T104D | Ctrl | ND ND ND ND ND ND | ND | 0 of 18
S53A/G103V | Ctrl | ND 1.63 ND ND ND ND | 1.63 | 0 of 18
G99T/R100N | Ctrl | 2.37 4.22 ND 3.52 ND ND | 3.37 | 1 of 18 (2.70)
Y32Q/F59I | Ctrl | ND ND ND ND ND ND | ND | 1 of 18 (0.45)
A101Q/A102P | Ctrl | 1.81 2.43 2.27 1.80 2.40 4.07 | 2.46 | 2 of 18 (2.68)
L29N/T58L/G99C/G103D | Ctrl | ND ND ND ND ND ND | ND | 0 of 18
S31E/G55S/F59Y | Ctrl | ND ND ND ND ND ND | ND | 0 of 18
R100Q | Ctrl | ND ND ND 0.27 ND ND | 0.27 | 0 of 18
G61D/D106F | Ctrl | ND ND ND ND ND ND | ND | 0 of 18
N30M/S31D | Ctrl | 0.91 1.47 0.91 2.07 2.23 1.08 | 1.44 | 0 of 18
S31D/S63Q/K65E/R100E/A101T | Ctrl | 0.44 0.34 1.03 0.31 0.43 0.89 | 0.57 | 0 of 18
S31E/I51D/K65A/G99R/A101C | Ctrl | ND ND ND ND ND ND | ND | 0 of 18
T28N/A101G | Ctrl | 1.78 1.67 1.42 3.15 2.43 2.31 | 2.13 | 0 of 18
A102G | Ctrl | ND 2.14 ND ND 2.68 ND | 2.41 | 0 of 18
T28W/S53A/D106C | Ctrl | ND ND ND ND ND ND | ND | 0 of 18
D62N/K65R/S107Q | Ctrl | ND ND ND ND ND ND | ND | 0 of 18
G61L/R100G/A102E | Ctrl | ND ND ND ND ND ND | ND | 0 of 18
G61I/A102M | Ctrl | -0.02 0.10 -0.32 -0.31 -0.10 -0.31 | -0.16 | 0 of 18

The last 6 entries again:

changes,group,log10 Kd (nM) by replicate,mean log10 Kd (nM),signal with controls
T28N/A101G,Ctrl,1.78 1.67 1.42 3.15 2.43 2.31,2.13,0 of 18
A102G,Ctrl,ND 2.14 ND ND 2.68 ND,2.41,0 of 18
T28W/S53A/D106C,Ctrl,ND ND ND ND ND ND,ND,0 of 18
D62N/K65R/S107Q,Ctrl,ND ND ND ND ND ND,ND,0 of 18
G61L/R100G/A102E,Ctrl,ND ND ND ND ND ND,ND,0 of 18
G61I/A102M,Ctrl,-0.02 0.10 -0.32 -0.31 -0.10 -0.31,-0.16,0 of 18

Nonspecific signal, from three strains lacking the peptide, appeared in 1% of pairings of all heavy chain designs, centred on 2.08 (5% of these signals below 0.84); values are not corrected for it. Also given: how often the same scFv was detected with the empty control strains, with their mean in brackets. A sequence measured in both rounds can read differently, since the two assays cover different ranges. Where one sequence has several entries in the source, the replicates are listed entry by entry, parted by semicolons. The authors averaged sequences with at least three values out of six and counted those with two or fewer as poor binders.

Source: Li et al. 2023 (doi:10.1038/s41467-023-39022-2), MIT Lincoln Laboratory and A-Alpha Bio; data file from the FLAb repository.